{"source": "paper PMC4844700", "about": "“Rifampin phosphotransferase is an unusual antibiotic resistance kinase” (Nature Communications, 2016)", "tested_on": "Nc1ncnc2c1ncn2[C@@H]1O[C@H](COP(=O)(O)OP(=O)(O)OP(=O)(O)O)[C@@H](O)[C@H]1O", "assay": "purified protein", "details": "RIF at five times its Km, 50 mM Hepes pH 7.5, 5 mM MgCl2, 40 mM NH4Cl, 25 °C, 11.3 μM enzyme"}
{"substance": "RPH-Lm (rifampin phosphotransferase) (Listeria monocytogenes serotype 4b str. F2365)", "values": [{"measurement": "Km", "value": "8.38 ± 0.67", "unit": "µM"}, {"measurement": "kcat", "value": 2.87, "unit": "s⁻¹"}, {"measurement": "kcat/Km", "value": 342000, "unit": "M⁻¹ s⁻¹"}]}
